Values of other authors as cited in patent publication US20170143824A1 (Teva Pharmaceutical Industries, Ltd., priority 2013, published 2017).

Legend:
[1] = after subcutaneous (SC) administration, after one hour

Substance: L-glutamic acid polymer with L-alanine, L-lysine, L-tyrosine, acetate (salt) [glatiramer acetate]
- severity of most adverse events (patients; 20 mg subcutaneous daily): mild to moderate
- immunosuppression or emergence of malignancy or other autoimmune diseases (patients; 10- and 15-year follow-up visits): not associated
- remaining at the injection site [1]: 10%
